Test results published in ChEMBL document CHEMBL5223156, “Synthesis and biological evaluation of novel N-benzyltriazolyl-hydroxamate derivatives as selective histone deacetylase 6 inhibitors” (Bioorg Med Chem, 2023).
pIC50: −log10 of the molar value.

By UniProt entry, the sequences of proteins in these tests, tags left out. Where a name states a change or a piece, a line headed by the entry shows the natural chain unless it says otherwise.
UniProt P56524: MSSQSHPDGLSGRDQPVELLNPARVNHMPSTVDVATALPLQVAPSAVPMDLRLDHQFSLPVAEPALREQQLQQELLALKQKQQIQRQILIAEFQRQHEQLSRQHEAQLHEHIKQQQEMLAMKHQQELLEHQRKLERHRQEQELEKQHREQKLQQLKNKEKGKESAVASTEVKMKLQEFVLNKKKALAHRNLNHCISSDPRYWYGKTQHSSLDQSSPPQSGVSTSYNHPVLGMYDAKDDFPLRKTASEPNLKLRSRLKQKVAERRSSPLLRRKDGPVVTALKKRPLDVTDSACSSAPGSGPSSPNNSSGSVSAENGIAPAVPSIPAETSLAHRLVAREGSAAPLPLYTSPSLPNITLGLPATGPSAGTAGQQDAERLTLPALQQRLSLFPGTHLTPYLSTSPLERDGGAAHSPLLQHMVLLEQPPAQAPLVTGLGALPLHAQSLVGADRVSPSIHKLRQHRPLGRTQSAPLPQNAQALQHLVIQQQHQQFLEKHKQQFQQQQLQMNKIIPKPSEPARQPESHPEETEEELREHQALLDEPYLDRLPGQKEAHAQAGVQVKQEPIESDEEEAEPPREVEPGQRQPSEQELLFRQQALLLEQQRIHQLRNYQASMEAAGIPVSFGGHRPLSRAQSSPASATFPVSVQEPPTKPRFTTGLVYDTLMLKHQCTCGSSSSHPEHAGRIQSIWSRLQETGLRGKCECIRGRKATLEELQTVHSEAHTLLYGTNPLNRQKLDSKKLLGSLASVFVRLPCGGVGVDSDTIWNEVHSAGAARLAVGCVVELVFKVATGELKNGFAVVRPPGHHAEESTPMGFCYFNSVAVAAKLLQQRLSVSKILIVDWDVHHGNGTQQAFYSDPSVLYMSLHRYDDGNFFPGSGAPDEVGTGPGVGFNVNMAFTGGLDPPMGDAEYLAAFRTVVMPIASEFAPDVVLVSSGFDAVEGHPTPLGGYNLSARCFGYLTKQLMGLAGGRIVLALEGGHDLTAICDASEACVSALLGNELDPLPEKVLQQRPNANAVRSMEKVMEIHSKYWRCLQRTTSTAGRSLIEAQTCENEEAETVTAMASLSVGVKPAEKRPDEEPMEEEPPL

Target: Histone deacetylase 4 (Homo sapiens, UniProt P56524)
Test: Inhibition of human recombinant HDAC4 using fluorogenic substrate measured after 30 mins

- pIC50: 5.37
SMILES: CN1CCc2c(c3ccccc3n2Cc2ccc(C(=O)NO)cc2)C1 [TUBASTATIN A]
